# Measurements from PubChem BioAssay AID2283701 (EPA ToxCast).
# These results got no clear call from the source, so the numbers are uncertain. The calls were made as follows: active = hit-call score of the fitted dose curve at least 0.9, where 1 is the maximum; inactive = score below 0.9.
# Read-out: xenobiotic metabolism (CYP2C9), CYP2C9 (gene 1559)
# Assay: CLD_CYP2C9_48hr: CellzDirect (CLD) Gene Expression Assay for xenobiotic metabolism (CYP1A2) at 48 hours
# Summary of the method: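 mRNA level measured by quantitative nuclease protection (S1 digestion, chemiluminescent detection) in lysates of human primary hepatocytes exposed 48 h with daily re-dosing. Induction fitted positively versus 0.2% DMSO; morphology-based cytotoxicity flagged yes/no.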
structure (smiles),measurement,value
CC(C)OP(=S)(OC(C)C)SCCNS(=O)(=O)c1ccccc1,AC50,inconclusive: 4.95 nM
